Experimental findings from ChEMBL document CHEMBL4507309 are described below.

The chains behind the UniProt entries cited, without tags or fusion partners.
UniProt P21917, whole entry, looked up: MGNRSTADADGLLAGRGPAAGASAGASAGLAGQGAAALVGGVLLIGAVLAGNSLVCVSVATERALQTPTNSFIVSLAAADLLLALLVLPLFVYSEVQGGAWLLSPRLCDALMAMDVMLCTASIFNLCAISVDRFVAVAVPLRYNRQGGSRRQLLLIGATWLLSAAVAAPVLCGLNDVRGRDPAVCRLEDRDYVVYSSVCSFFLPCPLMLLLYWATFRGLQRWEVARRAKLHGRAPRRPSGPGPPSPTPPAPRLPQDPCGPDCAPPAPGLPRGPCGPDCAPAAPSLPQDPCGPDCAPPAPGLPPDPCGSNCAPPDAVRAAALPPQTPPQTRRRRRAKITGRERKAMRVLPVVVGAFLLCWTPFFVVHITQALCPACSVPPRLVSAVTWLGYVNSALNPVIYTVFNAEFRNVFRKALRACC

The assay addresses D(4) dopamine receptor (Homo sapiens) (UniProt P21917). The assay is described as follows: GPCRScan assay: inhibition of D4. Particulars: Compound concentration 10.0 uM.

With `Cc1ccc2nc(CNCCCOc3ccccc3)cc(O)c2c1`, the inhibition is 96.7%.

The inhibition is the drop in the measured response relative to a control, in per cent.
